Test results from article PMC12751000, “Dual Agonist/Antagonist Modulation of α9-Containing Nicotinic Acetylcholine Receptors by 2‑Ammoniumethyl Ethers of Stilbenol and Stilbenol Analogues” (Journal of Medicinal Chemistry, 2025).

Protein sequences, listed by entry. Tags and fused reporters are not part of them. Residues count along the entry.
UniProt Q9GZZ6, 25-450: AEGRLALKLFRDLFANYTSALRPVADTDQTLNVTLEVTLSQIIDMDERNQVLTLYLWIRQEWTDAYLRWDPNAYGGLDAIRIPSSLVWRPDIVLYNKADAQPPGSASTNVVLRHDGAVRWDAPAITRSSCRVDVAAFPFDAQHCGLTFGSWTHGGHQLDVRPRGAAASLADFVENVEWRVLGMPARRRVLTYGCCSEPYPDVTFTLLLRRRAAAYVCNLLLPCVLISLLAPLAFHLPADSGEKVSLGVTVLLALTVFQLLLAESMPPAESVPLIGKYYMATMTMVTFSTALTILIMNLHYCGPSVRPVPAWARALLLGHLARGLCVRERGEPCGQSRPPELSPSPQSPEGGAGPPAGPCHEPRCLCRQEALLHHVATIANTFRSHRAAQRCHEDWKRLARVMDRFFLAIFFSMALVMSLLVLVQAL
UniProt Q9UGM1, 26-479 limits assumed: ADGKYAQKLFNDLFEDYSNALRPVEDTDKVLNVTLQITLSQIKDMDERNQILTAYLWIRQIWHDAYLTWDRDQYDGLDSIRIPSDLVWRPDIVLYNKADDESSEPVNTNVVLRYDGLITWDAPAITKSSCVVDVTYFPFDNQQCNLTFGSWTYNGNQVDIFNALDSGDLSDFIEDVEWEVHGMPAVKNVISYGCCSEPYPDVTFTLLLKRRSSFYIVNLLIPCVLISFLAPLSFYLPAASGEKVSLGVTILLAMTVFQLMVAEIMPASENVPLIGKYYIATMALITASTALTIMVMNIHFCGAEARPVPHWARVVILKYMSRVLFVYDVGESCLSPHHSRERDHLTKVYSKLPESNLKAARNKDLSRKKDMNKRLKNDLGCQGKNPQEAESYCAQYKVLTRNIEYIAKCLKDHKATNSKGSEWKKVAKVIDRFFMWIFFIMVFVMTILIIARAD

Columns and labels:
hα9α10 nAChRs [1] = target: T1, hα9α10 nAChRs (Homo sapiens, UniProt Q9GZZ6+Q9UGM1); assay: Two-electrode voltage clamp, compound-evoked currents (compound applied alone) at hα9α10 nAChRs in Xenopus laevis oocytes; assay type: cell-based
T1 construct: host or cells: Xenopus laevis oocytes, cRNA-injected (α9:α10 cRNA ratio 1:1)

hα9α10 nAChRs [2] = target: T1, hα9α10 nAChRs; assay: Two-electrode voltage clamp, inhibition of ACh-evoked currents at hα9α10 nAChRs expressed in Xenopus laevis oocytes; assay type: cell-based; conditions: 6 μM ACh

| SMILES | n H (Hill coefficient of activation) (hα9α10 nAChRs [1]) | n H (Hill coefficient of inhibition) (hα9α10 nAChRs [2]) |
| --- | --- | --- |
| CC[N+](CC)(CC)CCOc1ccc(CCc2ccccc2)cc1 [Compound 4] | 1.2 |  |
| C[N+](CCOc1ccc(/C=C/c2ccccc2)cc1)(Cc1ccccc1)Cc1ccccc1 [Compound 13] | 2.7 | 2.8 |
